Experimental data from paper PMC12142581.

Sequences of proteins named here, by UniProt entry; tags and fusion partners are left off.
UniProt P08173, whole entry, looked up: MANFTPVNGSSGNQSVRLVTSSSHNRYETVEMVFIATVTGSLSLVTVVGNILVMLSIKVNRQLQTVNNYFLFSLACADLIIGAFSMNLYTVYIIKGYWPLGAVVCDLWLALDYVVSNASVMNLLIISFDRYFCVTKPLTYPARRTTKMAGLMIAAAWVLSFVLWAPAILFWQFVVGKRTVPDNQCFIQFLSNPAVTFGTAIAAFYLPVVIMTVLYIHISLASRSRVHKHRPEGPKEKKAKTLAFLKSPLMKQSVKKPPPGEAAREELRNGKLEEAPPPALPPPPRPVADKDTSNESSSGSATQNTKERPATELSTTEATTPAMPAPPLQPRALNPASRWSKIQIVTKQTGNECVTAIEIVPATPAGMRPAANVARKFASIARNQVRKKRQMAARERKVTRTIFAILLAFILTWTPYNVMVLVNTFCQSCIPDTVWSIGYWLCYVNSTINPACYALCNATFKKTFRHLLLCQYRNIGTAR

Molecular target: human M4 (hM4) (Homo sapiens, UniProt P08173)
Experiment: Calcium mobilization assay, hM4/Gqi5-CHO cells, EC20 acetylcholine
Conditions: for %AChMax: normalized to 100 μM acetylcholine; for EC50: read-out: hM4 EC50, PAM, EC20 ACh

| Structure (SMILES) | hM4 pEC50 | %AChMax [% AChMax] | EC50 [nM] | further results |
| --- | --- | --- | --- | --- |
| COc1ccc(CNc2nccc3c2sc2nnc(C)c(C)c23)cc1 | 7.61 | 80 | 24.6 |  |
| Cc1nnc2sc3c(NC4CN(c5ncc(C(F)(F)F)cn5)C4)ncnc3c2c1C | 6.67 | 76 | 214 |  |
| Cc1c(Cl)nnc2sc3c(NCc4ccc(C(C)(C)O)cc4)ncnc3c12 | 6.77 | 97 | 171 | fold loss of hM4 potency (vs 15p): two-fold |
| Cc1nc(NC2CCC2)c2sc3nnc(C)c(C)c3c2n1 | <4.50 |  | > 30000 |  |
| Cc1nnc2sc3c(N4CCCC4)nccc3c2c1C | 7.94 | 72 | 11.5 |  |
| Cc1cc(CNc2ncnc3c2sc2nnc(C)c(C)c23)ccc1C(C)(C)O | 6.56 | 91 | 278 |  |
| Cc1nnc2sc3c(OCc4ccccc4)ncnc3c2c1C | <5.00 | 52 | > 10000 |  |
| Cc1nnc2sc3c(N(C)Cc4ccc(C(C)(C)O)cc4)ncnc3c2c1C | 6.60 | 86 | 249 | fold loss of hM4 potency (vs 15p): 3.4 fold |
| Cc1nnc2sc3c(NCc4ccc(C(C)(C)O)nc4)ncnc3c2c1C | 7.14 | 79 | 72.5 | fold more potent (hM4) (vs 19b): 4 fold |
| Cc1nnc2sc3c(C4CCNCC4)ncnc3c2c1C | 5.37 | 34 | 4270 |  |
| Cc1nnc2sc3c(NCc4ccc(C5(O)CCC5)cc4)ncnc3c2c1C | 7.01 | 90 | 97.8 |  |
| CCc1nnc2sc3c(NCc4ccc(C(C)(C)O)cc4F)ncnc3c2c1C | 6.04 | 50 | 916 | fold loss of hM4 potency (vs 19a): 3.4 fold |
| Cc1nnc2sc3c(C4CC(F)(F)C4)ncnc3c2c1C | 6.46 | 72 | 350 |  |
| COc1ccc(CNc2nncc3c2sc2nnc(C)c(C)c23)cc1F | 6.39 | 87 | 407 |  |
| Cc1nnc2sc3c(N4CC(c5ccncc5)C4)ncnc3c2c1C |  | 62 |  |  |
| Cc1nnc2oc3c(NCc4ccc(C(C)(C)O)cc4)ncnc3c2c1C | 5.75 | 65 | 1770 | fold loss of hM4 potency (vs 15p): 25 fold |
| Cc1nnc2sc3c(NC4CN(c5cc(Cl)ncc5Cl)C4)ncnc3c2c1C | 6.90 | 69 | 125 |  |
| Cc1nnc2sc3c(NCc4ccc(C(=O)O)cc4)ncnc3c2c1C | 6.36 | 91 | 441 |  |
| CC(=O)OCc1nnc2sc3c(NCc4ccc(C(C)(C)O)cc4)ncnc3c2c1C | 5.97 | 59 | 1060 |  |
| Cc1nnc2sc3c(NC4CC4)ncnc3c2c1C | 7.97 | 97 | 10.6 |  |
| Cc1nnc2sc3c(N4CCCC4)nncc3c2c1C | 6.57 | 96 | 271 |  |
| Cc1nnc2sc3c(NCc4ccc(C(C)(C)O)cc4F)ncnc3c2c1C | 6.55 | 85 | 285 |  |
| Cc1nnc2sc3c(CC(C)(C)C)ncnc3c2c1C | 6.72 | 76 | 190 |  |
| Cc1nnc2oc3c(NC4CCC4)ncnc3c2c1C | 5.82 | 55 |  | fold loss of functional hM4 activity (vs 15d): 20.5 fold |
| Cc1nnc2sc3c(CCC4CCCCO4)ncnc3c2c1C (stereo not shown) | 6.54 | 70 | 290 |  |
| Cc1nnc2sc3c(C4CCOCC4)ncnc3c2c1C | 6.92 | 75 | 120 |  |

| Structure (SMILES) | hM4 pEC50 | %AChMax [% AChMax] | EC50 [nM] | further results |
| --- | --- | --- | --- | --- |
| Cc1nnc2sc3c(NCc4ccc(C(C)(O)C(F)(F)F)cc4)ncnc3c2c1C (stereo not shown) | 6.26 | 69 | 547 | fold loss of hM4 potency (vs 15p): 7.5 fold |
| Cc1nnc2sc3c(NCc4ccc(OC(F)F)cc4)ncnc3c2c1C | 6.58 | 69 | 261 |  |
| Cc1c(C(F)F)nnc2sc3c(NCc4ccc(C(C)(C)O)cc4)ncnc3c12 | 6.60 | 99 | 251 | fold loss of hM4 potency (vs 15p): three-fold |
| Cc1nnc2oc3c(NC4CN(c5ncc(F)cn5)C4)ncnc3c2c1C | 6.55 | 37 | 284 |  |
| Cc1nnc2sc3c(NC4CN(c5ncc(F)cn5)C4)nccc3c2c1C | 7.84 | 79 | 14.6 |  |
| Cc1nnc2sc3c(NC4CCC4)nccc3c2c1C | 7.85 | 84 | 14.2 |  |
| Cc1nnc2sc3c(NCc4ccc(CN5CCOCC5)cc4)ncnc3c2c1C | 6.79 | 87 | 162 |  |
| Cc1nnc2sc3c(NCc4ccc(C(C)(C)O)c(F)c4)ncnc3c2c1C | 6.55 | 80 | 285 |  |
| Cc1nc(N2CCCC2)c2sc3nnc(C)c(C)c3c2n1 | <4.50 |  | > 30000 |  |
| Cc1nnc2sc3c(OCc4ccc(C(C)(C)O)cc4)ncnc3c2c1C | 6.19 | 81 | 642 | fold loss of hM4 potency (vs 15p): 9 fold |
| Cc1nnc2sc3c(NC4CN(c5ncc(C(F)(F)F)cn5)C4)nccc3c2c1C | 6.97 | 87 | 108 |  |
| Cc1nnc2sc3c(NCc4ccc(C(C)(O)C5CC5)cc4)ncnc3c2c1C (stereo not shown) | 6.48 | 85 | 334 |  |
| Cc1nnc2sc3c(Oc4ccccc4)ncnc3c2c1C | <5.00 | 25 | > 10000 |  |
| COc1ccc(CNc2ncnc3c2oc2nnc(C)c(C)c23)cc1F | 5.97 | 36 | 1070 |  |
| Cc1nnc2sc3c(NC4CN(c5cnc(C6CC6)cn5)C4)ncnc3c2c1C | 7.23 | 80 | 58.3 |  |
| COc1ccc(CNc2ncnc3c2sc2nnc(C)c(C)c23)cc1 | 6.61 | 88 | 247 | fold less potent (hM4) (pyrimidine vs corresponding pyridine analog (37c, 37e)): 10 fold |
| COc1ccc(CNc2ncnc3c2sc2nnc(C)c(C)c23)cc1F |  | 90 |  |  |
| Cc1nnc2sc3c(N4CCCC4)ccnc3c2c1C | 6.07 | 46 | 842 |  |
| Cc1nnc2sc3c(N4CC5CC5C4)ncnc3c2c1C (stereo not shown) | 7.67 | 81 | 21.3 |  |
| Cc1cc(C(C)(C)O)ccc1CNc1ncnc2c1sc1nnc(C)c(C)c12 | 6.64 | 71 | 231 |  |
| Cc1nnc2sc3c(NCc4ccc5c(c4)COC5(C)C)ncnc3c2c1C | 6.40 | 95 | 396 |  |
| Cc1nnc2sc3c(C4CCN(C(=O)C5CC5)CC4)ncnc3c2c1C | 6.39 | 36 | 408 | fold improvement of hM4 potency (vs 13a): 10.5 fold |
| Cc1nnc2sc3c(N4CC(C)(O)C4)ncnc3c2c1C | 6.54 | 63 | 286 |  |
| Cc1nnc2sc3c(NCc4ccc(C(=O)NC5CC5)cc4)ncnc3c2c1C | 6.98 | 93 | 104 |  |
| Cc1nnc2sc3c(NC4CCC4)ncnc3c2c1C |  | 73 |  |  |
| Cc1nnc2sc3c(NC4CCC4)ccnc3c2c1C | <4.50 |  | > 30000 |  |
